Tested on: EGFR and EGFR downstream signaling in Ba/F3 cells overexpressing D770delinsGY and H773_V774insH
Experiment: Immunoblot analysis in Ba/F3 cells
Type: cell-based
Excerpt: Five distinct Exon20ins were introduced (FIG. 1B), all of which have been observed in NSCLC patients (V769_D770insASV, D770delinsGY, H773_V774insH, Y764_V765insHH and D770_N771insSVD) (20,21).

COc1cc2ncnc(Nc3ccc(F)c(Cl)c3)c2cc1OCCCN1CCOCC1 [gefitinib]
downstream EGFR signaling pathway components: not inhibited
p-EGFR: reduced p-EGFR
